Experimental data taken from US11091476B2 (dated 2021).

By UniProt entry, the sequences of proteins in these tests, tags left out.
UniProt Q00534, whole entry: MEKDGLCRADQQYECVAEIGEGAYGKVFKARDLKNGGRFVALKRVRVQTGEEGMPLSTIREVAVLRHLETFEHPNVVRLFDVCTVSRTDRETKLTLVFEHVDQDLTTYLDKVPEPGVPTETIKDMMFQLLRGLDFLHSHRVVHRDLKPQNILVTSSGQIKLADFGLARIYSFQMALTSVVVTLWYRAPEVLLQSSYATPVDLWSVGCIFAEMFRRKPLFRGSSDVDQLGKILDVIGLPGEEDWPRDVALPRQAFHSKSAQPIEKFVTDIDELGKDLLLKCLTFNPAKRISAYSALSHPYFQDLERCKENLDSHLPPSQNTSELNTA

Target: CDK6/CyclinD3 (Homo sapiens (Human), UniProt Q00534)
Test: CDK kinase inhibitory activity, ADP-Glo Kinase Assay, CDK6/CyclinD3
Assay type: biochemical
Conditions: ratio of IC50s

CC1=Nc2c(F)cc(-c3nc(Nc4ccc(C5CCN(C)CC5)cn4)ncc3F)cc2C12CCCC2 [Example 17, 5-Fluoro-4-(7′-fluoro-2′-methylspiro[cyclopentane-1,3′-indol]-5′-yl)-N-(5-(1-methylpiperidin-4-yl)pyridin-2-yl)pyrimidine-2-amino]
CDK9/CDK6 (selectivity for CDK6 over CDK9): 7.33 | Pim-1/CDK6 (selectivity for CDK6 over Pim-1): 52.43
